From PubChem BioAssay AID463079 (The Scripps Research Institute Molecular Screening Center, 2010)
The list shows a part of the results, in another mix than the full data. Some results for these compounds are left out of this collection, so the calls shown say nothing about other tests. Activity calls are given as the source filed them.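 Rule for the calls: active = inhibition above that plate's mean sample inhibition plus 3 SD (cut at about 26% in these data); inactive = the rest.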

test: ATP-evoked calcium signal inhibitors, parental CHO, primary screen, counter-screen for OX1R antagonist project, cell-based, fluorescence, Fluo-8 calcium dye (AID 463079); conditions: parental CHO-K1, ATP-induced calcium, Fluo-8 fluorescence; at 5.6 µM; stronger effect = higher value;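 note: 0% = ATP-challenged DMSO wells and 100% = DMSO wells without ATP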
Summary of the method: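 test system = CHO parental line | reagent = ATP stimulus | measured by = intracellular calcium via Fluo-8 no-wash fluorescent dye | control set = ATP and no-ATP DMSO wells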

Row | SMILES | inhibition
1 | CC(C)Oc1ccc(C(=O)NCC2(N(C)C)CCCCC2)cc1 | inactive: -7.85%
2 | CN(C)c1cccc(C(=O)NCC2(N(C)C)CCCCC2)c1 | inactive: -17.5%
3 | COc1ccc(Br)c(C(=O)NCC2(N3CCCCC3)CCCCC2)c1 | inactive: -29.6%
4 | O=C(OC1CN2CCC1CC2)C(CO)(c1ccccc1)c1ccccc1 (centres undefined) | inactive: -0.27%
5 | O=C(NCC1(N2CCCCC2)CCCCC1)c1cccc(Cl)c1 | inactive: -11.5%
6 | COc1ccc(Cl)cc1C(=O)NCC1(N(C)C)CCCCC1 | inactive: -7.51%
7 | COc1cccc(C(=O)NCC2(N3CCCCC3)CCCCC2)c1 | inactive: -24.1%
8 | COc1cc(C(=O)NCC2(N(C)C)CCCCC2)c([N+](=O)[O-])cc1OC | inactive: -14.8%
9 | CN(C)C1(CNC(=O)c2ccc(Br)cc2)CCCCC1 | inactive: -6.73%
10 | COc1ccc(C(=O)NCC2(N(C)C)CCCCC2)cc1 | inactive: -10.5%
11 | O=C(NCC1(N2CCCCC2)CCCCC1)c1cccc(Br)c1 | inactive: -28%
12 | CCN1CCCC(OC(=O)C2(O)c3ccccc3C=Cc3ccccc32)C1 (centres undefined) | inactive: -10.5%
13 | Cc1cc(C(=O)NCC2(N3CCCCC3)CCCCC2)ccc1[N+](=O)[O-] | inactive: -15.8%
14 | O=C(NCC1(N2CCCCC2)CCCCC1)c1cc(F)c(F)cc1Cl | inactive: -20.4%
15 | C=CCN1CCN(CCOC(=O)C(O)(c2ccccc2)c2ccccc2)CC1 | inactive: -13.1%
16 | CN(C)c1ccc(C(=O)NCC2(N(C)C)CCCCC2)cc1 | inactive: -5.93%
17 | CN(C)C1CCCC1OC(=O)C(O)(c1ccccc1)c1ccccc1 (centres undefined) | inactive: -8.85%
18 | Cc1ccccc1C(=O)NCC1(N2CCCCC2)CCCCC1 | inactive: -25.7%
19 | Cc1ccc(C(=O)NCC2(N3CCCCC3)CCCCC2)cc1 | inactive: -13.8%
20 | COc1cc(SC)ccc1C(=O)NCC1(N(C)C)CCCCC1 | inactive: -13.2%
21 | CCN(CC)CC(C)C(C)OC(=O)C(O)(c1ccccc1)c1ccccc1 (centres undefined) | inactive: -16.1%
22 | CC(C)N1C(=O)CC2(CCN(CCOC(=O)C(O)(c3ccccc3)c3ccccc3)CC2)C1=O | inactive: -8.35%
23 | CN1[C@@H]2CC[C@H]1CC(OC(=O)C(O)(c1ccccc1)c1ccccc1)C2 (some centres undefined) | inactive: -13.1%
24 | O=C(NCC1(N2CCCCC2)CCCCC1)c1cc([N+](=O)[O-])ccc1Cl | inactive: -25%
